The list shows a part of the results, in another mix than the full data. The source made the active and inactive calls.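 Rule for the calls: active = activation above the run cutoff, the mean activation of all test compounds plus 3 SD (cut at about 18% in these data); inactive = the rest.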
target: Muscarinic acetylcholine receptor M5 (Homo sapiens) (UniProt P08912); assay: human M5 muscarinic receptor positive allosteric modulators, primary screen, CHO-K1 cells, Fluo-8 calcium fluorescence (AID 624038); conditions: CHO-K1 hM5, Fluo-8 calcium, ACh EC20 PAM; at 3 µM; stronger effect = higher value; 0% = ACh EC20, 100% = ACh EC100

Amino acid sequences for entries named in this document (tags omitted).
UniProt P08912, whole entry, looked up: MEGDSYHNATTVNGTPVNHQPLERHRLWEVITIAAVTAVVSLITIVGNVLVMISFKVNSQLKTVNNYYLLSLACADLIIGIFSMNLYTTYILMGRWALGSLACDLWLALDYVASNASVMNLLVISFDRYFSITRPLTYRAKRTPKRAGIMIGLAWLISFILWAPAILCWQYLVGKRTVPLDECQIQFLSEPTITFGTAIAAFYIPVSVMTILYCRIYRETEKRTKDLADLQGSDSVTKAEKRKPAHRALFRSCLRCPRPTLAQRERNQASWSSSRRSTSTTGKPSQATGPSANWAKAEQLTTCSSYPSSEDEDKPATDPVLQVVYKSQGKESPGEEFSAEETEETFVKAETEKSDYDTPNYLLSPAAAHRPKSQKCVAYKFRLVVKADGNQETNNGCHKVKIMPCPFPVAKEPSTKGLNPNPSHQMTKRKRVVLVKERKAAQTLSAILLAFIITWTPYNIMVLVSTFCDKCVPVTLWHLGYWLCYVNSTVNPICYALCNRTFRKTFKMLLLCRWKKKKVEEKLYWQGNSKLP

SMILES | activation
Cc1cc(SC(NC=O)C(Cl)(Cl)Cl)ncn1 (configuration not stated) | inactive: 12.2%
O=P(Nc1ccccn1)(c1cccc2ccccc12)c1cccc2ccccc12 | inactive: 2.48%
O=[N+]([O-])c1ccc(Nc2ccc(Oc3ccc([N+](=O)[O-])cc3[N+](=O)[O-])cc2)c([N+](=O)[O-])c1 | inactive: -2.82%
CCOC(=O)Nc1cccc([As](=O)(O)O)c1 | inactive: 2.7%
COP(=O)(OC)N1CC1c1ccccc1 (configuration not stated) | inactive: -1.71%
Cc1cc(SC(NC(=O)c2ccccc2)C(Cl)(Cl)Cl)nc(C(C)C)n1 (configuration not stated) | inactive: -2.86%
O=C(O)C(O)c1ccc(N(CCCl)CCCl)cc1 (configuration not stated) | inactive: 0.11%
CCOC(=O)Nc1ccc([As](=O)(O)O)c(O)c1 | inactive: 8.32%
CC1CCNP(=O)(N(CCCl)CCCl)O1 (configuration not stated) | inactive: -1.58%
C/C=C1/CC(C)C(C)(O)C(=O)OCC2CCN3CCC(OC1=O)C23 (configuration not stated) | inactive: -20.5%
CCC(C)N(CC(C)C)C(=S)SC(NC(C)=O)C(Cl)(Cl)Cl (configuration not stated) | inactive: 7.02%
O=C(OC1CN2CCC1CC2)c1cccc([N+](=O)[O-])c1 (configuration not stated) | inactive: -10.1%
CSc1ccc(Nc2c([N+](=O)[O-])cc([N+](=O)[O-])cc2[N+](=O)[O-])cc1 | inactive: -15.7%
CCOC(=O)c1ccc(NC(=O)C(C)(CCl)SC)cc1 (configuration not stated) | inactive: -2.88%
O=C(O)C(=O)c1ccc(N(CCCl)CCCl)cc1 | inactive: -1.83%
O=C(COc1ccccc1)OC1CN2CCC1CC2 (configuration not stated) | inactive: -26.2%
O=C(Nc1ccncc1[N+](=O)[O-])c1ccc([N+](=O)[O-])cc1[N+](=O)[O-] | inactive: -3.2%
COP1(=S)c2c(C)nn(CCC#N)c2N=C(c2ccc(F)cc2)N1C (configuration not stated) | inactive: 0.35%
COC(=O)C1(C)COP(=O)(N2CCCC2)OC1 (configuration not stated) | inactive: -5.94%
O=[N+]([O-])c1cc(Oc2ccc([N+](=O)[O-])cc2C(F)(F)F)cc([N+](=O)[O-])c1 | inactive: -5.22%
COc1ccc(N/C(=N/P(=O)(N2CCOCC2)N2CCOCC2)N2CCOCC2)cc1 | inactive: 5.36%
O=P1(N(CCCl)CCCl)OCCCN1CCCl (configuration not stated) | inactive: 3.33%
O=P1(N(CCCl)CCCl)Nc2ccccc2N1 | inactive: -5.2%
COc1ccc2nc(NP(=O)(c3ccccc3)c3ccccc3)sc2c1 | inactive: -3.16%
COc1cc(I)ccc1[As](=O)(O)O | inactive: 8.34%
Cc1c2c(nc3ccccc13)SC(C(Cl)Cl)C2 (configuration not stated) | inactive: -8.32%
O=C(OC1CN2CCC1CC2)C12CC3CC(CC(C3)C1)C2 (configuration not stated) | inactive: -43.1%

Reference: PubChem BioAssay AID624038 (The Scripps Research Institute Molecular Screening Center, 2012)
